According to PubChem BioAssay AID435005 (Broad Institute, 2010):
This is a selection; strong and weak results do not stand in their true shares. Active and inactive are the calls of the source.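 Rule for the calls: active = Every replicate reaches about 75%, or at least half do and their mean reaches it too (limit read from the data); inconclusive = At least half of replicates reach the limit but their mean does not; inactive = Under half of replicates reach the limit.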

Test: inhibitors of cytokine-induced beta cell apoptosis, primary screen, luminescence (AID 435005);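 note: 0% = cytokine-treated negative control wells and 100% = positive control rescue; higher means more ATP so stronger rescue from cytokine killing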
Conditions: INS-1E cytokine-induced death, ATP luminescence, 48 h; hits give high values; percent of positive-control rescue, neutral wells zero; concentration not given here

Compound | protection from apoptosis
CC[n+]1c(/C=C/N(C)c2ccccc2)oc2ccccc21 | active: 102%
